# Experimental data reported in ChEMBL document CHEMBL3785033, “Disrupting Acetyl-Lysine Recognition: Progress in the Development of Bromodomain Inhibitors” (J Med Chem, 2016).
# Organism: Homo sapiens
# Assay: Selectivity ratio of Kd for BRD9 (unknown origin) to Kd for human BRPF1B (unknown origin)
smiles,measurement,value
COc1cc(C#N)ccc1S(=O)(=O)Nc1ccc2c(c1)cc(C)c(=O)n2C,Ratio,32
